Hits are enriched below; roughly 13% of the tested compounds scored in any of these assays.
ALDH1A1 block: blocks purified human ALDH1A1 activity. AID 1030. Potency, µM (series often up to 75.3 µM), hits mostly inhibitors. Purified ALDH1A1, NADH fluorescence, propionaldehyde substrate. P00352. 220,000 compounds, 7.3% hits; active = well fitted inhibition curve with a large enough effect, not every such curve was filed as active; inconclusive = small, poorly fitted or top-dose-only effect, or another doubt; inactive = no such curve, though single readings can be large or run the other way
Sfp inh: Sfp phosphopantetheinyl transferase inhibition; Biochemical Sfp PPTase activity, qHTS; 310,000 compounds, 3.5% hits; AID 1490; Potency, µM, actives largely listed as inhibitors;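 also: the enzyme is Sfp with the accession as filed and its product quenches rhodamine fluorescence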
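Compounds were incubated with enzyme (final 15 nM) for 15 min at room temperature before substrate addition started the reaction. Fluorescence at 525 nm excitation, 598 nm emission was recorded immediately and after 30 minutes.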
G9a block: blocks human histone lysine methyltransferase G9a. Q96KQ7. G9a H3K9 monomethylation, AlphaScreen, 2 h. Potency, µM (series often up to 102 µM), actives largely listed as inhibitors. 350,000 compounds, 8.8% hits. AID 504332; also: nearly all actives have a fitted effect of over 75% in size
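Chemiluminescent proximity detection of H3K9 monomethylation, read after 10 min bead incubation in the dark. Reaction: 20 nM G9a, 500 nM biotin-H3K9 peptide, 20 uM SAM cofactor, 2 h, room temperature, following 15 min enzyme-compound preincubation.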
KDM4E inh: blocks human JMJD2E demethylase activity; B2RXH2; JMJD2E catalytic domain, FDH-coupled NADH fluorescence (FDH is formaldehyde dehydrogenase); Potency, µM (top dose mostly 57.1 µM), usual class: inhibitors; 230,000 compounds, 1.6% hits; AID 2147; active = well fitted inhibition curve with a large enough effect, not every such curve was filed as active; inconclusive = small, poorly fitted or top-dose-only effect, or another doubt; inactive = no such curve, though single readings can be large or run the other way; also: nearly all actives have a fitted effect of over 50% in size
Lamin A splicing: modulators of lamin A splicing; HeLa LMNA splicing GFP/RFP minigene ratio, 48 h; Potency, µM (series often up to 46.1 µM), actives largely listed as inhibitors; 200,000 compounds, 0.01% hits; AID 1487; active = well fitted inhibition curve with a large enough effect in the signal ratio, with a control signal flat, not every such curve was filed as active; inconclusive = small, poorly fitted or top-dose-only effect, or effect the other way, or a change in a side signal; the % refers to the signal ratio
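S3 HeLa stable clones carrying a lamin A-EGFP splicing minigene plus DsRed2 were seeded at 600 cells/well in Opti-MEM with 2% FBS, pin-dosed and incubated 48 h at 37°C. Acumen cytometry (488 nm) gave the GFP/RFP total-intensity ratio.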
miR-21 reporter: raises the signal of a miR-21 reporter | Potency, µM (highest dose often 38.3 µM) | HeLa miR-21 FLuc reporter, luciferase, 48 h | 340,000 tested, under 10 active; active = well fitted rising curve with a large enough effect; inconclusive = small, poorly fitted or top-dose-only effect; inactive = no such curve, though single readings can be large or run the other way;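 further: miR-21 action dims this reporter so a rising signal means less miR-21 action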
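HeLa miR-21-FLuc reporter line, endogenous miR-21; 2000 cells/well in DMEM/10% FBS; compound titration up to ~40uM final, 48 h, 37 degree Celsius; luciferase detection reagent, 15 min lysis, CCD luminescence.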
Large screens that a line does not name were inactive. Unless noted, calls follow the shape of the dose curve; as a rule, active = well fitted curve in the direction sought with a large enough effect; inconclusive = small, poorly fitted or top-dose-only effect, or another doubt; inactive = no such curve, though single readings can be large; an effect the other way counts as inactive or inconclusive.

CCSc1ccccc1C(=O)NCCCn1ccnc1	Sfp inh inconclusive, G9a block 20µM
O=C(NCCCn1ccnc1)C(F)(F)C(F)(F)C(=O)NCCCn1ccnc1	Sfp inh inconclusive, G9a block 14µM
CSc1ccccc1C(=O)NCCCn1ccnc1	none (no result: ALDH1A1 block, KDM4E inh, Lamin A splicing)
CC(NC(=O)NCCCn1ccnc1)(C(F)(F)F)C(F)(F)F	none
CCNC(=S)NNC(=O)c1cc(-c2cccc(OC)c2)nc2ccccc12	G9a block 40µM, KDM4E inh inconclusive, Lamin A splicing inconclusive
CCC(CC)c1nnc(NC(=O)c2cc(-c3ccccc3)nc3ccccc23)s1	ALDH1A1 block inconclusive, G9a block 45µM, KDM4E inh inconclusive, Lamin A splicing inconclusive
COc1cccc(-c2cc(C(=O)Nc3nc4ccccc4s3)c3ccccc3n2)c1	ALDH1A1 block inconclusive, Sfp inh 40µM, KDM4E inh inconclusive, Lamin A splicing inconclusive
COc1ccc(-c2cc(C(=O)Nc3nc4c(C)cccc4s3)c3ccccc3n2)cc1OC	ALDH1A1 block inconclusive, G9a block inconclusive, KDM4E inh inconclusive
COc1ccc(C(=O)NCCCn2ccnc2)cc1	ALDH1A1 block 7.9µM
O=C(NCc1ccccn1)c1cc(-c2ccc(-c3ccccc3)cc2)nc2ccccc12	ALDH1A1 block inconclusive, Sfp inh 25µM, G9a block 3.2µM, KDM4E inh inconclusive, Lamin A splicing inconclusive
O=C(NCCCn1ccnc1)c1ccc(N2CCCCC2)c([N+](=O)[O-])c1	ALDH1A1 block 7.9µM, Lamin A splicing inconclusive, miR-21 reporter inconclusive
O=C(CN(c1ccccc1)S(=O)(=O)c1ccc(F)cc1)NCc1cccs1	none (no result: ALDH1A1 block, Sfp inh, KDM4E inh, Lamin A splicing, miR-21 reporter)
CC(C)c1cc(C(=O)NCc2ccccc2)no1	none (no result: ALDH1A1 block, Sfp inh, KDM4E inh, Lamin A splicing)
Cc1ccc2c(CC(=O)N3CCN(c4cccc(Cl)c4)CC3)coc2c1C	none (no result: ALDH1A1 block, Sfp inh, KDM4E inh, Lamin A splicing)
CCN(CC)CCNC(=O)c1ccc(NC(=O)c2cc(-c3ccco3)nc3ccccc23)cc1	Sfp inh inconclusive, G9a block 32µM (no result: ALDH1A1 block, KDM4E inh, Lamin A splicing)
O=C(NCCCn1ccnc1)c1cccc(S(=O)(=O)Nc2ccc(Br)cc2)c1	G9a block 11µM (no result: ALDH1A1 block, Sfp inh, KDM4E inh, Lamin A splicing, miR-21 reporter)
CN(C)C(=O)c1ccc(NC(=O)c2cc(-c3ccco3)nc3ccccc23)cc1	none (no result: ALDH1A1 block, KDM4E inh, Lamin A splicing)
O=C(NCCCn1ccnc1)c1cccc(S(=O)(=O)Nc2ccc(F)cc2)c1	none (no result: ALDH1A1 block, Sfp inh, KDM4E inh, Lamin A splicing, miR-21 reporter)
O=C(Nc1nc2ccccc2s1)c1cc(-c2ccco2)nc2ccccc12	ALDH1A1 block inconclusive, Sfp inh 45µM, G9a block inconclusive, KDM4E inh inconclusive, Lamin A splicing inconclusive
Cc1ccc2nc(NC(=O)c3cc(-c4ccco4)nc4ccccc34)sc2c1	ALDH1A1 block inconclusive, G9a block inconclusive, KDM4E inh inconclusive
COc1cccc(-c2cc(C(=O)NCCCn3ccnc3)c3ccccc3n2)c1	G9a block 3.2µM
Cc1nn(C(C)C(=O)NC(C)CCc2ccccc2)c(=O)c2cc3occc3n12 (stereo not given)	none (no result: ALDH1A1 block, KDM4E inh, Lamin A splicing)
C=CCNC(=O)/C(=C/c1cccc([N+](=O)[O-])c1)NC(=O)c1ccco1	none
COc1cc2c(cc1OC)CN(C(=O)CNC(=O)c1ccc(OC(F)F)cc1)CC2	none (no result: ALDH1A1 block, KDM4E inh, Lamin A splicing)
Cc1nnc(NC(=O)c2cc(-c3ccco3)nc3ccccc23)s1	G9a block 40µM (no result: ALDH1A1 block, Sfp inh, KDM4E inh, Lamin A splicing, miR-21 reporter)
CC(C)Oc1cccc(-c2cc(C(=O)NC(=S)N(C)c3ccccc3C(=O)O)c3ccccc3n2)c1	ALDH1A1 block inconclusive, G9a block 22µM, KDM4E inh inconclusive
CCOC(=O)c1c(C)n(-c2ccccc2)c2ccc(OC(=O)c3ccc(OCC)c(OCC)c3)cc12	none (no result: ALDH1A1 block, Sfp inh, KDM4E inh, Lamin A splicing)
CC(S)C(=O)NCC(=O)O (stereo not given)	ALDH1A1 block 18µM, Lamin A splicing inconclusive (no result: KDM4E inh, miR-21 reporter)
N#C/C(=C\Nc1ccc2cn[nH]c2c1)c1nc(-c2ccc(Cl)cc2)cs1	ALDH1A1 block inconclusive, Sfp inh 56µM (no result: Lamin A splicing)
N#C/C(=C/c1ccc(Cl)cc1)c1nc(-c2ccc(Br)cc2)cs1	none (no result: ALDH1A1 block, Sfp inh, KDM4E inh, Lamin A splicing)
N#C/C(=C\Nc1ccc2cn[nH]c2c1)c1nc(-c2ccccc2)cs1	Sfp inh 56µM, G9a block 71µM
C/C(=N\NC(=O)Cc1cccn1C)c1ccc2ccccc2c1	ALDH1A1 block inconclusive, G9a block 71µM, KDM4E inh inconclusive
C/C(=N/NC(=O)Cc1cccn1C)c1ccccc1	ALDH1A1 block 18µM
CCOc1cc(CNCc2cccnc2)ccc1OCC(=O)NC(C)(C)C	G9a block 50µM, Lamin A splicing inconclusive
COc1cc(CNc2ccc3[nH]c(=O)[nH]c3c2)cc(Cl)c1OCC(=O)NC(C)(C)C	ALDH1A1 block inconclusive, Sfp inh 11µM, G9a block inconclusive, KDM4E inh inconclusive
CCOc1cc(CNc2ccc3[nH]c(=O)[nH]c3c2)ccc1OCC(=O)NC(C)(C)C	ALDH1A1 block inconclusive, Sfp inh inconclusive, G9a block 5µM, KDM4E inh inconclusive
C=CCOc1ccc(CNc2ccc3[nH]c(=O)[nH]c3c2)cc1OCC	ALDH1A1 block inconclusive, G9a block inconclusive, KDM4E inh inconclusive
CN(Cc1ccccc1)C(=O)COC(=O)CCN1C(=O)C2CC=CCC2C1=O (stereo not given)	none (no result: ALDH1A1 block, Sfp inh, KDM4E inh, Lamin A splicing, miR-21 reporter)
CC(C)(C)n1nc2c(c1NC(=O)c1cccc(Cl)c1)CS(=O)(=O)C2	none (no result: ALDH1A1 block, KDM4E inh, Lamin A splicing)
Cc1cc(C)c2c(=O)n(CC(=O)NC3CCCC3)sc2n1	Sfp inh 2.8µM, G9a block 0.5µM, KDM4E inh inconclusive (no result: ALDH1A1 block, Lamin A splicing)

High-throughput results (PubChem BioAssay)
